Assay [1] concerns human monocyte-derived DCs. The assay can be described thus: Maturation of human monocyte-derived dendritic cells. Conditions: immature human DCs incubated with analog.
In another assay the test system is melanoma (B16) cells. The assay can be described thus: Melanoma (B16) model in mice. Conditions: IV 0.1 μg per mouse once per week for four weeks.
The test system of assay [2] is syngeneic lung cancer (TC1) cells. As to the kind of experiment: Lung cancer model in mice (TC1, IV inoculation). Format: in vivo. Conditions: IV 0.1 μg per mouse once per week for four weeks.
For assay [3], the system named is lung cancer (TC1-GFP-Luciferase). The assay can be described thus: Real time assessment of tumor growth, lung cancer TC1-GFP-Luciferase. Conditions: IV 0.1 μg per mouse once per week for four weeks.

For `CCCCCCCCCCCCCCCCCCCCCCCCCC(=O)N[C@@H](CO[C@H]1O[C@H](CO)[C@H](O)[C@H](O)[C@H]1O)[C@H](O)[C@H](O)CCc1ccccc1` [C13], the “expression levels of surface maturation markers (CD40, CD80, CD83, CD86, HLA-DR) on DCs” value in assay [1] was “significant increase in the expression levels of CD40, CD80, CD83, CD86 and HLA-DR”.

Consider `CCCCCCCCCCCCCC[C@@H](O)[C@@H](O)[C@H](CO[C@H]1O[C@H](CO)[C@H](O)[C@H](O)[C@H]1O)NC(=O)CCCCCCCCCCc1ccc(-c2ccc(F)cc2)cc1` [C30], for which, in the assay with melanoma (B16) cells, the “size of B16 tumors” value is listed as “significant decrease in the size of the tumors”. Further, the “survival time of mice bearing TC1” value in assay [2] is “significant increase in the survival time of mice bearing TC1”. Also, in assay [3], the “tumor growth (bioluminescence)” value is “significant decrease in tumor growth compared with both control and α-GalCer”.

On to `CCCCCCCCCCCCCC[C@@H](O)[C@@H](O)[C@H](CO[C@H]1O[C@H](CO)[C@H](O)[C@H](O)[C@H]1O)NC(=O)CCCCCCCCCCc1ccc(-c2ccccc2)cc1` [C26], for which, in the assay with melanoma (B16) cells, the “size of B16 tumors” value was “significant decrease in the size of the tumors”. Also, the “survival time of mice bearing TC1” value in assay [2] is on record as “significant increase in the survival time of mice bearing TC1”.

For the origin of these results see patent US20080260774A1, “Alpha-galactosyl ceramide analogs and their use as immunotherapies” (priority 2007, published 2008).
